Most compounds without a hit are left out; they make up all but 2.1% or so of the library.
Nrf2 ARE act – activates Nrf2 signaling | AREc32 ARE-luciferase reporter (MCF7-derived line), luminescence, 24 h | Potency, µM (titrated, usually from 46.1 µM), inactives show at the highest dose activation, hits mostly activators | actives 0.31% (n = 410,000); also: potency is read from the fitted curve at half-maximal effect; % of control where 0% means no effect; nearly all actives have a fitted effect of over 65% in size
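Reporter line AREc32 (ARE-Fluc), seeded overnight in OPTI-MEM with 5% FBS; compound pin-transferred, 24 hr at 37 deg C, 5% CO2; luminescent read-out.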
Glioma ERSR ind – induces the endoplasmic reticulum stress response in human glioma cells | AID 602332 | U87-MG GRP78 promoter luciferase reporter, 16 h | Potency, µM, for inactives: at the highest dose activation, actives largely listed as activators | actives 0.02% (n = 420,000); also: potency is read from the fitted curve at half-maximal effect; series mostly up to about 76 µM; % of control where 0% means no effect; nearly all actives have a fitted effect of over 35% in size
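Stably transfected U87-MG glioma cells carrying a GRP78-based luciferase sensor; 16 h compound incubation. Luminescence end-point read 10 min after Bright-Glo addition at room temperature.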
TSG101-PTAP inh – blocks PTAP/TSG101 interaction to inhibit HIV-1 budding | Q99816 | Fluorescence polarization, FITC-PTAP peptide / Tsg101 binding | Potency, µM (doses to about 115 µM), without a hit: top-dose activity change, negative = inhibition, most hits filed as inhibitors | 340,000 tested, under 10 active | AID 493005; active = well fitted inhibition curve with a large enough effect in the main read-out, with a control signal flat, not every such curve was filed as active; inconclusive = small, poorly fitted or top-dose-only effect, or effect the other way, or a change in a side signal; inactive = no such curve, though single readings can be large or run the other way; also: potency is read from the fitted curve at half-maximal effect; % of control where 0% means no effect
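Steps: Tsg101 binding domain dispensed (10 uM final), compounds pinned in DMSO, FITC-labeled PTAP-motif peptide added (50 nM final); after 20 min binding at room temperature, polarization measured.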
A549 tox – kills or reduces viability of A549 cells in Nrf2 counter-screen | AID 504648 | actives 0.16% (n = 390,000) | Potency, µM (top dose mostly 46 µM), for inactives: at the top dose activity change, negative = cytotoxicity, actives largely listed as inhibitors | A549 ARE-Fluc cells, CellTiter-Fluor viability, 18-24 h; also: potency is read from the fitted curve at half-maximal effect; % is scaled to controls: 0 for no effect and ±100 for the full control effect
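Cytotoxicity counterscreen: CellTiter-Fluor fluorescence was measured in A549 ARE_Fluc cells after 18-24 h of compound exposure in a concentration series. The subsequent BugLite luminescent read reports ARE-luciferase activity.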
Nrf2 block – Nrf2 pathway inhibition; A549 ARE-Fluc reporter, luciferase luminescence, 18-24 h; Potency, µM (top dose mostly 46 µM), without a hit: top-dose activity change, negative = inhibition, actives largely listed as inhibitors; actives 2.1% (n = 360,000); also: potency is read from the fitted curve at half-maximal effect; % is scaled to controls: 0 for no effect and ±100 for the full control effect; nearly all actives have a fitted effect of over 60% in size
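A549 ARE_Fluc cells, 5000/well, 5% FBS OPTI-MEM; compounds in dose-response, 18-24 h at 37 °C/5% CO2; CellTiter-Fluor viability read (Ex 405/Em 525), then BugLite luciferase luminescence = Nrf2 activity.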
miR-21 reporter – miR-21 reporter, rising signal; Potency, µM (titrated, usually from 38.3 µM), without a hit: at the highest dose reporter change, positive = more light; AID 2288; 340,000 tested, under 10 active; HeLa miR-21 FLuc reporter, luciferase, 48 h; active = well fitted rising curve with a large enough effect; inconclusive = small, poorly fitted or top-dose-only effect; inactive = no such curve, though single readings can be large or run the other way;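 note: % of control where 0% means no effect; miR-21 action dims this reporter so a rising signal means less miR-21 action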
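HeLa miR-21-FLuc reporter line, endogenous miR-21; 2000 cells/well in DMEM/10% FBS; compound titration up to ~40uM final, 48 h, 37 degree Celsius; luciferase detection reagent, 15 min lysis, CCD luminescence.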
* hit, by the source's call; ? = inconclusive; . = not tested or not shown. Unless noted, calls follow the shape of the dose curve; as a rule, active = well fitted curve in the direction sought with a large enough effect; inconclusive = small, poorly fitted or top-dose-only effect, or another doubt; inactive = no such curve, though single readings can be large; an effect the other way counts as inactive or inconclusive.

| cpd | SMILES | Nrf2 ARE act | Glioma ERSR ind | TSG101-PTAP inh | A549 tox | Nrf2 block | miR-21 reporter |
| --- | --- | --- | --- | --- | --- | --- | --- |
| 1 | Cc1ccc(NC(=O)c2cc(S(=O)(=O)N(C)C)ccc2N2CCCC2)cc1S(=O)(=O)N(C)C | -0.6% | 31.6µM* | -4.3% | -15.6% | 10.4% | . |
| 2 | Cc1ccc(OCCC(=O)OCC(=O)Nc2ccc(C)c(S(=O)(=O)N3CCOCC3)c2)cc1 | -0.7% | -0.3% | -3.2% | -4.4% | -28.4% | . |
| 3 | Cc1ccc(NC(=O)CNc2cccc(S(=O)(=O)N3CCCC3)c2)cc1F | 0.1% | -4.9% | -1.7% | -5.4% | ? | . |
| 4 | O=C(CNc1cccc(S(=O)(=O)N2CCCC2)c1)Nc1ccc(F)c(F)c1 | 0.7% | -2.4% | -6.7% | -28.1% | 25.9µM* | . |
| 5 | Cc1ccc(NC(=O)COc2ccc(-c3nnco3)cc2)cc1S(=O)(=O)N1CCOCC1 | -0.2% | -1.9% | 1.0% | 0.7% | 23.1µM* | 14.6% |
| 6 | Cc1ccc(NCC(=O)Nc2cccc(S(=O)(=O)N(C)C)c2)cc1S(=O)(=O)N1CCCCCC1 | -0.5% | -2.8% | -2.3% | ? | 8.2µM* | . |
| 7 | CCN(CC)S(=O)(=O)c1cccc(NC(=O)Nc2cccc(C(F)(F)F)c2)c1 | -1.7% | -3.7% | 1.2% | ? | 2.59µM* | ? |
| 8 | CCN(CC)S(=O)(=O)c1cccc(NC(=O)CNc2cccc(S(=O)(=O)N3CCCC3)c2)c1 | -0.1% | -4.5% | -1.2% | ? | 25.9µM* | 23.8% |
| 9 | Cc1ccc(NCC(=O)Nc2ccc(F)c(Cl)c2)cc1S(=O)(=O)N1CCOCC1 | 4.1% | -4.5% | . | . | . | . |
| 10 | Cc1ccc(NC(=O)CNc2cccc(Br)c2)cc1S(=O)(=O)N1CCOCC1 | -0.5% | -4.2% | -7.0% | ? | 20.6µM* | . |
| 11 | CCN(CC)S(=O)(=O)c1ccc(C)c(NC(=O)CNc2cccc(S(=O)(=O)N3CCCC3)c2)c1 | 0.3% | -4.1% | -1.7% | -16.6% | ? | . |
| 12 | O=C(Nc1cccc(C(F)(F)F)c1)Nc1ccc2snnc2c1 | -1.2% | 2.6% | . | ? | 20.6µM* | ? |
| 13 | Clc1cccc[n+]1CCCCCC[n+]1ccccc1Cl | . | -1.5% | . | . | . | . |
| 14 | Cc1nc(-c2ccc(F)cc2)c(CC(=O)Nc2ccc(C)c(S(=O)(=O)N3CCOCC3)c2)s1 | -0.8% | -3.0% | 0.0% | -5.6% | 18.4µM* | 2.2% |
| 15 | Cc1ccc(Cn2ccc(NC(=O)c3cc(-c4ccc(Cl)cc4)on3)n2)cc1 | -0.5% | -2.9% | -10.0% | -0.1% | . | -5.4% |
| 16 | Cc1ccc(Cn2ccc(NC(=O)c3cc(-c4cccc(Cl)c4)on3)n2)cc1 | -0.2% | -4.9% | -1.3% | ? | 20.6µM* | -3.1% |
| 17 | COc1cc(Br)cc(/C=N/NC(=O)Cc2ccc(C(F)(F)F)cc2[N+](=O)[O-])c1O | -1.6% | 13.4% | -0.7% | ? | 16.4µM* | -2.8% |
| 18 | Cc1ncc2c(c1CNC(=O)/C=C/c1cccs1)CCN(C(=O)c1c(C)noc1C)C2 | . | -3.2% | . | . | . | . |
| 19 | COc1ccc(-c2cc(C)no2)cc1S(=O)(=O)N1CCN(c2ccc(C(C)=O)cc2)CC1 | -0.3% | -1.8% | . | -1.2% | 13µM* | 20.4% |
| 20 | O=C1/C(=C\c2ccccc2)CN(C(=O)CCN2CCCCC2)C/C1=C/c1ccccc1 | -3.6% | -12.4% | 0.1% | -5.2% | 3.5% | . |
| 21 | O=C1/C(=C\c2ccc(Cl)c(Cl)c2)CN(C(=O)CCN2CCOCC2)C/C1=C/c1ccc(Cl)c(Cl)c1 | ? | -13.7% | 0.6% | 20.6µM* | ? | . |
| 22 | CCc1ccc(/C=C/C(=O)c2c(C)cc(C)[nH]c2=O)cc1 | -1.7% | -15.3% | -5.5% | -22.9% | 18.4µM* | ? |
| 23 | Cc1nonc1CN(C)C(=O)C1CC12CCN(C(=O)/C=C/c1cccc(Cl)c1)CC2 (configuration not stated) | . | -1.2% | . | . | . | . |
| 24 | COc1ccc(C#CC2=CC(=O)CC(C)(C)C2)cc1 | 12.6µM* | 11.4% | . | . | . | . |
| 25 | COc1ccccc1C#CC1=CC(=O)CC(C)(C)C1 | 14.1µM* | -2.1% | . | . | . | . |
| 26 | Cc1cc(NC(=O)CSc2nc(-c3ccc(Cl)cc3)cs2)no1 | 0.2% | -3.3% | -1.0% | -2.5% | -21.5% | -6.8% |

A second format for part of the listing above.
The line under a structure holds: Nrf2 ARE act	Glioma ERSR ind	TSG101-PTAP inh	A549 tox	Nrf2 block	miR-21 reporter
23: Cc1nonc1CN(C)C(=O)C1CC12CCN(C(=O)/C=C/c1cccc(Cl)c1)CC2 (configuration not stated)
→ .	-1.2%	.	.	.	.
24: COc1ccc(C#CC2=CC(=O)CC(C)(C)C2)cc1
→ 12.6µM*	11.4%	.	.	.	.
25: COc1ccccc1C#CC1=CC(=O)CC(C)(C)C1
→ 14.1µM*	-2.1%	.	.	.	.
26: Cc1cc(NC(=O)CSc2nc(-c3ccc(Cl)cc3)cs2)no1
→ 0.2%	-3.3%	-1.0%	-2.5%	-21.5%	-6.8%
